{"source": "paper PMC12070228", "about": "“Investigations of Enteric-Coated Tablet Propyl Gallate-Induced Nephrotoxicity in Beagles as well as Human and Dog Renal Proximal Tubule Epithelial Cells” (ACS Pharmacology & Translational Science, 2025)", "experiment": "Exposure comparison of PG and phase-I and phase-II metabolites in dog and human plasma", "conditions": "human and dog plasma after oral EC MEDI7219 tablets; samples through 8 h"}
{"substance": "gallic acid-glutathione [GA-GSH]", "values": [{"measurement": "Exposure in circulation", "result": "very low exposure"}]}
{"substance": "propyl gallate-glutathione [PG-GSH]", "values": [{"measurement": "Exposure in circulation", "result": "very low exposure"}]}
